{"source": "ChEMBL document CHEMBL1132560", "about": "“N-Substituted 2-(2,6-dinitrophenylamino)propanamides: novel prodrugs that release a primary amine via nitroreduction and intramolecular cyclization” (J Med Chem, 1999)", "key": {"[1]": {"test": "Cytotoxicity on AA8 cell growth (reduce cell number by 50%)."}, "EMT6": {"system": "EMT6", "test": "Cytotoxicity on EMT6 cells growth (reduce cell number by 50%)."}, "SK-OV-3": {"system": "SK-OV-3", "test": "Cytotoxicity on SKOV3 cells growth (reduce cell number by 50%)."}, "[2]": {"test": "Cytotoxicity on UV4 cells growth (reduce cell number by 50%)."}}, "data": [{"compound": "Nc1ccc(N(CCCl)CCCl)cc1", "values": [{"measurement": "IC50", "setting": "[1]", "result": 5700, "unit": "nM"}, {"measurement": "IC50", "setting": "EMT6", "result": 1200, "unit": "nM"}, {"measurement": "IC50", "setting": "SK-OV-3", "result": 2400, "unit": "nM"}, {"measurement": "IC50", "setting": "[2]", "result": 90, "unit": "nM"}]}]}
